Our source for the Ki values is ChEMBL document CHEMBL1143739, “SAR study of bicyclo[4.1.0]heptanes as melanin-concentrating hormone receptor R1 antagonists: taming hERG” (Bioorg Med Chem, 2007).

Sequences of proteins named here, by UniProt entry; tags and fusion partners are left off. A change or cut given only in a name is not applied to a line headed by its entry.
UniProt Q99705: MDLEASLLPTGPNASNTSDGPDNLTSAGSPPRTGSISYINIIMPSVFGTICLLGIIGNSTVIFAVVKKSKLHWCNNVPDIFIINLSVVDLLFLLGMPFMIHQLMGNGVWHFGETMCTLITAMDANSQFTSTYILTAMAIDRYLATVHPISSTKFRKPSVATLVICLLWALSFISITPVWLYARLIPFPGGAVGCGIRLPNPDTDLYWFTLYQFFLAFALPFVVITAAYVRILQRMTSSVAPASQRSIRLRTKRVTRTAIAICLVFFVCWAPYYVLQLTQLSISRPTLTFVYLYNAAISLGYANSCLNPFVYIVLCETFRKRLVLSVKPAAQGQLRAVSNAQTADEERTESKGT

Structures are written as SMILES.

The target of this assay is Melanin-concentrating hormone receptor 1 (Homo sapiens, UniProt Q99705). Put plainly: Displacement of [125I]MCH from MCHR1 expressed in CHO cells. Format: cell-based. Summed up: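 Human MCH R1, CHO cell membranes (0.1 mg/mL) on SPA beads (1 mg/mL). Buffer: 25 mM HEPES, 10 mM MgCl2, 5 mM MnCl2, 0.1% BSA, pH 7.4. Incubation 2–4 h at room temperature, scintillation count. Ki by non-linear regression; mean ± range of two determinations, each in quadruplicate.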
On the technique in general: Displacement assays read how much labelled ligand stays bound in the presence of the test substance.

What is called Ki is the dissociation constant of the complex between target and ligand, obtained from inhibition or displacement. A low value points to a stronger hold on the target. Consider `N#Cc1cccc([C@]23CC[C@@H](N(CC4CCN(C5CCOCC5)CC4)C(=O)Nc4ccc(F)c(Cl)c4)CC2C3)c1` (stereo partly drawn), for which the Ki is 8.7 nM.

In turn, `N#Cc1cccc([C@]23CC[C@@H](N(CCN4CCC[C@@H]4CO)C(=O)Nc4ccc(F)c(Cl)c4)CC2C3)c1` (stereo partly drawn) returned a Ki of 15 nM.

For the compound `COC(=O)c1cccc([C@]23CC[C@@H](N(CCN(C(C)C)C(C)C)C(=O)Nc4ccc(F)c(F)c4)CC2C3)c1` (stereo partly drawn), the Ki was 34 nM.
